Patent publication US10017555B2, “Long-acting blood sugar decreasing fusion protein” (Genor Biopharma Co., Ltd., priority 2013, dated 2018)

T1: GLP-1R on the surface of β-TC-6 cells (Mus musculus, UniProt O35659)
T1 construct: host or cells: β-TC-6 mouse beta pancreatic tumor cells (fixed)
T1 sequence (O35659 22-463): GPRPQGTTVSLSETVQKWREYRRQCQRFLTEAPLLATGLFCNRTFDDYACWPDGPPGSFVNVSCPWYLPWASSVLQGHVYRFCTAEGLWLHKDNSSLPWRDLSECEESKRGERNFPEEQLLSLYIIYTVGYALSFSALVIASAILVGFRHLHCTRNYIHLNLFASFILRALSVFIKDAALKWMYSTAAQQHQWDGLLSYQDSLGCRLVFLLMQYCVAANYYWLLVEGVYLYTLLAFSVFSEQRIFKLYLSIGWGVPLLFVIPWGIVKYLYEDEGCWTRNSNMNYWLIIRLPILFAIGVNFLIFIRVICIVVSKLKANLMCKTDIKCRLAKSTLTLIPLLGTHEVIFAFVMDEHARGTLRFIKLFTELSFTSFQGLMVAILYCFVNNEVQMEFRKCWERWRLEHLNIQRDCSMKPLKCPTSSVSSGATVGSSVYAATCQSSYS

B1: GLP-1-Fc-1: Human GLP-1 (7-37) mutant fused via peptide linker to IgG2 Fc, SEQ ID NO: 4, hinge VECPPCP (protein)
chain: MELGLSWIFLLAILKGVQCHGEGTFTSDVSSYLEEQAAKEFIAWLVKGGGGGGGSGGGGSGGGGSVECPPCPAPPVAGPSVFLFPPKPKDTLMISRTPEVTCVVVDVSHEDPEVQFNWYVDGVEVHNAKTKPREEQFNSTFRVVSVLTVVHQDWLNGKEYKCAVSNKGLPAPIEKTISKTKGQPREPQVYTLPPSREEMTKNQVSLTCLVKGFYPSDIAVEWESNGQPENNYKTTPPMLDSDGSFFLYSKLTVDKSRWQQGNVFSCSVMHEALHNHYTQKSLSLSPGK
B2: GLP-1-Fc-3: Human GLP-1 (7-37) mutant fused via peptide linker to IgG2 Fc, SEQ ID NO: 6, hinge VECPPCP, C-terminal K deleted (protein)
chain: MELGLSWIFLLAILKGVQCHGEGTFTSDVSSYLEEQAAKEFIAWLVKGGGGGGGSGGGGSGGGGSVECPPCPAPPVAGPSVFLFPPKPKDTLMISRTPEVTCVVVDVSHEDPEVQFNWYVDGVEVHNAKTKPREEQFNSTFRVVSVLTVVHQDWLNGKEYKCKVSNKGLPAPIEKTISKTKGQPREPQVYTLPPSREEMTKNQVSLTCLVKGFYPSDIAVEWESNGQPENNYKTTPPMLDSDGSFFLYSKLTVDKSRWQQGNVFSCSVMHEALHNHYTQKSLSLSPG

Molecular target: T1, GLP-1R on the surface of β-TC-6 cells
Assay: In vitro binding activity of the fusion protein to β-TC-6 cells
Conditions: fixed β-TC-6 cells, 4-fold dilutions from 500 μg/ml, absorbance 450/570 nm, FIG. 4
Protocol: An assay for the direct binding activity of the fusion protein to GLP-1 receptor (GLP-1R)-positive mouse beta pancreatic tumor cells (β-TC-6) was performed according to the method described in PLoS ONE. 2010, 5 (9): e12734.
8.5×10^6 of mouse beta pancreatic tumor cells β-TC-6 (purchased from ATCC) were collected, centrifuged and fixed with 8.5 ml of fixative (IC Fixation buffer, purchased from Invitrogen Co.) (4° C., 10 min). The resultant cells were centrifuged again, resuspended with 3.4 ml of PBS, and seeded at a density of 2.5×10^5 cells/well (100 μl) in a 96-well U-shaped plate. In the meantime, the three fusion proteins of the present invention were diluted 4-fold with PBS starting from 500 μg/ml to obtain a total of 10 gradients, respectively.
The cells in the 96-well U-shaped plate were centrifuged and the supernate was removed. The diluted fusion proteins were added at 100 μl/well into the plate, and then the plate was incubated at 4° C. for 1 hour. The cells were centrifuged again to remove the supernate, and washed with 200 μl/well of PBS twice. […] The absorbance at a wavelength of 450/570 nm was read on a M5 multifunctional microplate reader (purchased from Molecular Devices Co.), and the results are shown in FIG. 4.

Row | Molecule | binding activity to GLP-1R on the surface of β-TC-6 cells
1 | B1 | specific binding activity
2 | B2 | specific binding activity
